Measurements published in ChEMBL document CHEMBL2390917, “Synthesis and biological evaluation of 2-(5-methyl-4-phenyl-2-oxopyrrolidin-1-yl)-acetamide stereoisomers as novel positive allosteric modulators of sigma-1 receptor” (Bioorg Med Chem, 2013).

The chains behind the UniProt entries cited, without tags or fusion partners.
UniProt P32241, whole entry: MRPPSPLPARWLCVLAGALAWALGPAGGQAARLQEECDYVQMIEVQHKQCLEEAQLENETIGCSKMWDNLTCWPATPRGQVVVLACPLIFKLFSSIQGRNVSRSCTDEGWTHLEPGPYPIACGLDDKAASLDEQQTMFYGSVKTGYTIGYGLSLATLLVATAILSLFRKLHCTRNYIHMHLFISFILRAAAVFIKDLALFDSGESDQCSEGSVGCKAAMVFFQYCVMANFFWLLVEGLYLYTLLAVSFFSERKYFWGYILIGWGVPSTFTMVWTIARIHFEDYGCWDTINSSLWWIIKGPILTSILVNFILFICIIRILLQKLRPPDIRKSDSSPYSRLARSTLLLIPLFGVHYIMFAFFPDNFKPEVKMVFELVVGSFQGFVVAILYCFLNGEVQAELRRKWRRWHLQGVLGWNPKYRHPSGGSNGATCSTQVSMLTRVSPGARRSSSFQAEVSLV

Molecular target: Vasoactive intestinal polypeptide receptor 1 (Homo sapiens, UniProt P32241)
Experiment: Binding affinity to human VPAC1 receptor by radioligand displacement assay

- IC50: 0.05 nM
Structure (SMILES): CC[C@H](C)[C@H](NC(=O)CNC(=O)[C@H](CC(=O)O)NC(=O)[C@H](CO)NC(=O)[C@@H](N)Cc1cnc[nH]1)C(=O)N[C@@H](Cc1ccccc1)C(=O)N[C@H](C(=O)N[C@@H](CC(=O)O)C(=O)N[C@@H](CO)C(=O)N[C@@H](Cc1ccc(O)cc1)C(=O)N[C@@H](CO)C(=O)N[C@@H](CCCNC(=N)N)C(=O)N[C@@H](Cc1ccc(O)cc1)C(=O)N[C@@H](CCCNC(=N)N)C(=O)N[C@@H](CCCCN)C(=O)N[C@@H](CCC(N)=O)C(=O)N[C@@H](CCSC)C(=O)N[C@@H](C)C(=O)N[C@H](C(=O)N[C@@H](CCCCN)C(=O)N[C@@H](CCCCN)C(=O)N[C@@H](Cc1ccc(O)cc1)C(=O)N[C@@H](CC(C)C)C(=O)N[C@@H](C)C(=O)N[C@@H](C)C(=O)N[C@H](C(=O)N[C@@H](CC(C)C)C(=O)NCC(=O)N[C@@H](CCCCN)C(=O)N[C@@H](CCCNC(=N)N)C(=O)N[C@@H](Cc1ccc(O)cc1)C(=O)N[C@@H](CCCCN)C(=O)N[C@@H](CCC(N)=O)C(=O)N[C@@H](CCCNC(=N)N)C(=O)N[C@H](C(=O)N[C@@H](CCCCN)C(=O)N[C@@H](CC(N)=O)C(=O)N[C@@H](CCCCN)C(N)=O)C(C)C)C(C)C)C(C)C)[C@@H](C)O
